# Laboratory results published in ChEMBL document CHEMBL4715829, “Heterodimeric Rifampicin-Tobramycin conjugates break intrinsic resistance of Pseudomonas aeruginosa to doxycycline and chloramphenicol in vitro and in a Galleria mellonella in vivo model” (Eur J Med Chem, 2019).
# Tests used:
# Pseudomonas aeruginosa [1] = experiment: Antibacterial activity against Pseudomonas aeruginosa 264-101354 assessed as fractional inhibitory concentration index in presence of doxycycline incubated for 18 hrs by broth microdilution assay; format: functional
# Pseudomonas aeruginosa [2] = experiment: Antibacterial activity against Pseudomonas aeruginosa 100036 assessed as fractional inhibitory concentration index in presence of doxycycline incubated for 18 hrs by broth microdilution assay; format: functional
compound,measurement,setting,value
CO[C@H]1/C=C/O[C@@]2(C)Oc3c(C)c(O)c4c(O)c(c(/C=N/N5CCN(C)CC5)c(O)c4c3C2=O)NC(=O)/C(C)=C\C=C\[C@H](C)[C@H](O)[C@@H](C)[C@@H](O)[C@@H](C)[C@H](OC(C)=O)[C@@H]1C [RIFAMPIN],fractional inhibitory concentration index (FICI),Pseudomonas aeruginosa [1],1.25
same,fractional inhibitory concentration index (FICI),Pseudomonas aeruginosa [2],1.25
